In PubChem BioAssay (NCI):
Where “and” joins values, the source holds several entries; their conditions need not be identical. Equal values may be shown once. The entries are a selection whose mix differs from that of the whole data set.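 48-hour exposure, single concentration, 96-well plates; percent growth endpoint where 0 means no net growth. Active: below 10.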 Calls of active or inactive are those of the source.

What was measured:
Experiment in all cases: NCI-60 one-dose screen, 48 h (100 = growth as untreated, 0 = no growth, -100 = all killed)
[1] = system: HCT-15 colon; settings: 10 µM unless noted
[2] = system: HT29 colon; settings: 10 µM unless noted
[3] = system: SNB-75 CNS; settings: 10 µM unless noted
[4] = system: SNB-19 CNS; settings: 10 µM unless noted
[5] = system: U251 CNS; settings: 10 µM unless noted
[6] = system: PC-3 prostate; settings: 10 µM unless noted
[7] = system: SK-MEL-5 melanoma; settings: 10 µM unless noted
[8] = system: UACC-62 melanoma; settings: 10 µM unless noted
[9] = system: LOX IMVI melanoma; settings: 10 µM
[10] = system: SK-MEL-28 melanoma; settings: 10 µM unless noted
[11] = system: SK-MEL-2 melanoma; settings: 10 µM unless noted
[12] = system: EKVX NSCLC; settings: 10 µM unless noted
[13] = system: SN12C renal; settings: 10 µM unless noted
[14] = system: UO-31 renal; settings: 10 µM unless noted
[15] = system: TK-10 renal; settings: 10 µM unless noted
[16] = system: ACHN renal; settings: 10 µM unless noted
[17] = system: CAKI-1 renal; settings: 10 µM unless noted
[18] = system: A498 renal; settings: 10 µM unless noted
[19] = system: HL-60(TB) leukemia; settings: 10 µM unless noted
[20] = system: CCRF-CEM leukemia; settings: 10 µM unless noted

Measured: growth

CCN(CCCl)Cc1cccc2ccccc12
inactive: [1] 97.3% | [2] 93.3% | [3] 39.7% | [4] 102% | [5] 88.1% | [6] 85.4% | [7] 102% | [8] 99.2% | [9] 107% | [10] 103% | [11] 108% | [12] 114% | [13] 102% | [14] 78% | [15] 96% | [16] 98.7% | [17] 101% | [18] 98.6% | [19] 101% | [20] 87.3%

CCCC1OP(N)(=O)OCC1CC (stereo not given)
inactive: [1] 109% and 105% | [2] 109% and 94.3% | [3] 115% and 93.5% | [4] 101% and 97.4% | [5] 109% and 102% | [6] 94.8% and 94.6% | [7] 100% and 97% | [8] 95% and 97.6% | [9] 103% and 104% | [10] 124% and 108% | [11] 104% and 108% | [12] 117% and 101% | [13] 107% and 100% | [14] 80.9% and 102% | [15] 108% and 101% | [16] 113% and 106% | [17] 106% and 103% | [18] 110% and 101% | [19] 119% and 102% | [20] 87.8% and 115%

O=[N+]([O-])N=C1NCCN1
inactive: [1] 99.5% and 102% | [2] 107% and 99.2% | [3] 123% and 100% | [4] 117% and 106% | [5] 101% and 97.5% | [6] 102% and 91.4% | [7] 115% and 99.1% | [8] 124% and 102% | [9] 103% and 101% | [10] 128% and 117% | [11] 103% and 112% | [12] 101% and 110% | [13] 113% and 101% | [14] 100% and 86.7% | [15] 91.7% and 111% | [16] 108% and 106% | [17] 88.2% and 89.8% | [18] 91.2% and 99.7% | [19] 89.9% and 132% | [20] 48.7% and 104%

ClP1(Cl)=NP(Cl)(Cl)=NP(Cl)(Cl)=N1
inactive: [1] 91.6% | [2] 98.6% | [3] 114% | [4] 104% | [5] 105% | [6] 95% | [7] 110% | [8] 102% | [9] 92.9% | [10] 114% | [11] 97% | [12] 97.9% | [13] 101% | [14] 81.4% | [15] 99.6% | [16] 89.2% | [17] 92.4% | [18] 118% | [19] 84.9% | [20] 102%

Cc1ccc(S(=O)(=O)n2cc(C3(O)CC(CC#N)OC3=O)c3cc(Br)ccc32)cc1 (stereo not given)
inactive: [1] 98.3% | [2] 115% | [3] 94.7% | [4] 90.8% | [5] 109% | [6] 90.6% | [7] 98.2% | [8] 102% | [9] 93% | [10] 114% | [11] 113% | [12] 94.5% | [13] 103% | [14] 108% | [15] 134% | [16] 109% | [17] 96.9% | [18] 103% | [19] 75.5% | [20] 84.6%

CC(=O)Nc1ccc([As](=O)(O)O)c(O)c1
inactive: [1] 110% | [2] 104% | [3] 95% | [4] 94.1% | [5] 111% | [6] 105% | [7] 102% | [8] 98.9% | [9] 98.6% | [10] 106% | [11] 113% | [12] 90.6% | [13] 106% | [14] 94.1% | [15] 105% | [16] 109% | [17] 93.5% | [18] 99.2% | [19] 88.8% | [20] 98.8%

O=C(O)c1ccccc1[As](=O)(O)O
inactive: [1] 111% | [2] 102% | [3] 85.5% | [4] 100% | [5] 101% | [6] 94.1% | [7] 129% | [8] 110% | [9] 90.1% | [10] 98.4% | [11] 115% | [12] 87.8% | [13] 96.7% | [14] 117% | [15] 91.5% | [16] 104% | [17] 56.8% | [18] 101% | [19] 123% | [20] 94.9%

CC(C)(NCCCl)C(O)c1ccccc1 (stereo not given)
inactive: [1] 94% | [2] 66.7% | [3] 77.7% | [4] 93.2% | [5] 77.6% | [6] 58.2% | [7] 95% | [8] 85.3% | [9] 93.4% | [10] 105% | [11] 80.5% | [12] 104% | [13] 88.7% | [14] 94.1% | [15] 83.5% | [16] 85.2% | [17] 80.9% | [18] 104% | [19] 93% | [20] 72.2%

ClC(Cl)(Cl)C1SCCS1
inactive: [1] 101% | [2] 93.8% | [3] 106% | [4] 99.2% | [5] 92.2% | [6] 108% | [7] 115% | [8] 102% | [9] 92.3% | [10] 112% | [11] 114% | [12] 95.1% | [13] 99.5% | [14] 93.2% | [15] 107% | [16] 108% | [17] 91.4% | [18] 89.8% | [19] 93.5% | [20] 97.2%

O=P1(N(CCCl)CCCl)OCCCN1CCCl (stereo not given)
inactive: [1] 100% | [2] 117% | [3] 99.4% | [4] 106% | [5] 97.6% | [6] 93.7% | [7] 99.4% | [8] 111% | [9] 107% | [10] 120% | [11] 109% | [12] 115% | [13] 111% | [14] 101% | [15] 104% | [16] 108% | [17] 101% | [18] 95.1% | [19] 105% | [20] 96.9%

CCCCCCCCCCNP(=S)(Cl)Cl
inactive: [1] 102% | [2] 101% | [3] 90.9% | [4] 97.8% | [5] 95.4% | [6] 99% | [7] 101% | [8] 95.4% | [9] 99% | [10] 106% | [11] 106% | [12] 103% | [13] 94.2% | [14] 92.5% | [15] 96.5% | [16] 99.2% | [17] 96.2% | [18] 79.9% | [19] 93.3% | [20] 93.3%

O=[N+]([O-])c1ccc(-c2cc([N+](=O)[O-])c(O)c([N+](=O)[O-])c2)cc1
inactive: [1] 97.9% and 104% | [2] 104% | [3] 107% and 105% | [4] 102% and 109% | [5] 104% | [6] 95.7% and 97% | [7] 107% and 105% | [8] 101% and 106% | [9] 96% and 102% | [10] 123% and 109% | [11] 103% and 96.2% | [12] 92.5% and 94.2% | [13] 97% and 103% | [14] 82.5% and 84.2% | [15] 104% and 106% | [16] 93.7% and 100% | [17] 98% and 95% | [18] 101% and 96.1% | [19] 99.9% | [20] 99.8%

O=[N+]([O-])c1cc(Cl)cc([N+](=O)[O-])c1O
inactive: [1] 109% | [2] 103% | [3] 105% | [4] 98.4% | [5] 95.8% | [6] 93.5% | [7] 101% | [8] 89.9% | [9] 96.2% | [10] 104% | [11] 106% | [12] 110% | [13] 104% | [14] 94.1% | [15] 107% | [16] 107% | [17] 110% | [18] 103% | [19] 97.3% | [20] 96.4%

NC1=NCC(Br)CS1 (stereo not given)
inactive: [1] 98.4% | [2] 111% | [3] 75.7% | [4] 105% | [5] 96.5% | [6] 95.6% | [7] 99.6% | [8] 93.7% | [9] 90.6% | [10] 103% | [11] 104% | [12] 111% | [13] 106% | [14] 91% | [15] 99.5% | [16] 98.9% | [17] 93.6% | [18] 105% | [19] 101% | [20] 100%
